The target of test [1] is Mu-type opioid receptor (Cavia porcellus, UniProt P97266). In words: Displacement of [3H]DAMGO from MOR in guinea pig brain membrane. In general terms: In a radioligand displacement assay an active substance lowers the binding of a labelled ligand.
In test [2] the target is Kappa-type opioid receptor (Cavia porcellus, UniProt P41144). As to the kind of experiment: Displacement of [3H]U69593 from KOR in guinea pig brain membrane.
Test [3] deals with Mus musculus. In words: Inhibition of BW373U86-induced antinociception in mouse assessed as reversal of inhibition of acetic acid-induced writhing at 32 mg/kg administered 24 hrs post BW373U86 treatment.
In test [4] the test system is Mus musculus. As to the kind of experiment: Inhibition of morphine-induced antinociception in mouse assessed as rightward shift of morphine curve at 32 mg/kg administered 30 mins prior morphine treatment by 55 degC warm water test relative to control.
Test [5] has as its system Mus musculus. In words: Inhibition of morphine-induced antinociception in mouse assessed as reversal of inhibition of acetic acid-induced writhing at 32 mg/kg administered 24 hrs post morphine treatment.
Test [6] relates to Mus musculus. In words: Inhibition of bremazocine-induced antinociception in mouse assessed as reversal of inhibition of acetic acid-induced writhing at 32 mg/kg administered 24 hrs post bremazocine treatment.
The subject of test [7] is Mus musculus. As to the kind of experiment: Inhibition of morphine-induced antinociception in mouse assessed as rightward shift of morphine curve at 32 mg/kg administered 24 hrs prior morphine treatment by 55 degC warm water test relative to control.
The subject of test [8] is Mus musculus. As to the kind of experiment: Antinociceptive activity in mouse assessed as inhibition of acetic acid-induced writhing at 32 mg/kg. In general terms: An intraperitoneal irritant provokes the stretching counted in writhing tests.
For test [9], the system named is Mus musculus. As to the kind of experiment: Antinociceptive activity in mouse assessed as tail withdrawal latency at 100 mg/kg by 50 degC warm water test.
Test [10] deals with Mus musculus. As to the kind of experiment: Antinociceptive activity in mouse assessed as tail withdrawal latency at 100 mg/kg by 55 degC warm water test.
In test [11] the test system is Mus musculus. In words: Antinociceptive activity in mouse assessed as inhibition of acetic acid-induced writhing at 10 mg/kg.
For test [12], the system named is Mus musculus. In words: Inhibition of morphine-induced antinociception in mouse assessed as rightward shift of morphine curve at 10 mg/kg administered 24 hrs post morphine treatment by 55 degC warm water test relative to control.

Chains of the proteins cited; added tags and fusions are not shown.
UniProt P97266, whole entry: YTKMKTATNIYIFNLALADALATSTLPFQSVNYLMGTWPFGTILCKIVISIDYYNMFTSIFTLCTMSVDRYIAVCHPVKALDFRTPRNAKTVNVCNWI
UniProt P41144, whole entry: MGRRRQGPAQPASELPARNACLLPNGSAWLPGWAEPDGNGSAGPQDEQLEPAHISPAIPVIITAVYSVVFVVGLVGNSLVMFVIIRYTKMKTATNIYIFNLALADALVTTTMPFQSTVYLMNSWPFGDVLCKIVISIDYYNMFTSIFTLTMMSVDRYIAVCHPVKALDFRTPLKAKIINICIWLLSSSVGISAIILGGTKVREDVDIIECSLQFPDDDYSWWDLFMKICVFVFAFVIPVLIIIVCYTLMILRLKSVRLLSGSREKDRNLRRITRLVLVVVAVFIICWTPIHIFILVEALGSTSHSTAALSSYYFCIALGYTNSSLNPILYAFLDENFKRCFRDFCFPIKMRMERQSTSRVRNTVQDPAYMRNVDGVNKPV

pKi: −log10 of the molar value.

The term pKi denotes −log10 of the Ki, conventionally taken in molar units. High values mean a low Ki, low ones a high Ki. `CO[C@]12CC[C@@]3(C[C@@H]1NC(=O)/C=C/c1ccccc1)[C@H]1Cc4ccc(O)c5c4[C@@]3(CCN1CC1CC1)[C@H]2O5`: the pKi is 9.05 in [1] and 8.89 in test [2].

`COC(=O)CCC(=O)N[C@@]12CCC(=O)[C@@H]3Oc4c(O)ccc5c4[C@@]31CCN(CC1CC1)[C@@H]2C5` [listing 1 of 2 here]: the pKi in test [1] is 9.15; in test [2] it was 9.30.

`COC(=O)/C=C/C(=O)N[C@H]1C[C@@]23CC[C@]1(OC)[C@@H]1Oc4c(O)ccc5c4[C@@]12CCN(CC1CC1)[C@@H]3C5`: the pKi in test [1] is 8.55; in test [2], 8.72. The inhibition (INH) is 28% in test [3], 70% in [5] and 20% in test [6]. Further, the fold change (FC) in [4] amounted to 30; in test [7], 4.

Take `COC(=O)/C=C/C(=O)NC[C@H]1C[C@@]23CC[C@]1(OC)[C@@H]1Oc4c(O)ccc5c4[C@@]12CCN(CC1CC1)[C@@H]3C5` [listing 1 of 2 here]: the inhibition (INH) was 10% in [3], 95% in test [5], 25% in [6] and 80% in test [8]. In addition, the fold change (FC) in test [7] stood at 30.

On to `COC(=O)/C=C/C(=O)O[C@@]12CCC(=O)[C@@H]3Oc4c(O)ccc5c4[C@@]31CCN(CC1CC1)[C@@H]2C5` [listing 1 of 2 here], for which the pKi in test [1] is 9.70; in [2], 9.10.

Consider `COC(=O)/C=C/C(=O)N[C@@]12CCC(=O)[C@@H]3Oc4c(O)ccc5c4[C@@]31CCN(CC1CC1)[C@@H]2C5`, for which the pKi in [1] was 9.62; in [2], 9.30. Besides, the Activity stood at 60% in test [9] and 30% in test [10]. The figures for the inhibition (INH) in [3], in [5] and in test [6] were 31%, 62% and 5%, respectively. For the same compound, in [11], the Imax was 90%. Moreover, the fold change (FC) in [12] was found to be 6.

Take `CO[C@]12CC[C@@]3(C[C@@H]1CNC(=O)/C=C/c1ccccc1)[C@H]1Cc4ccc(O)c5c4[C@@]3(CCN1CC1CC1)[C@H]2O5`: the values for the pKi in test [1] and in [2] were 9.15 and 8.59, respectively.

Regarding `COC(=O)/C=C/C(=O)O[C@@]12CCC(=O)[C@@H]3Oc4c(O)ccc5c4[C@@]31CCN(CC1CC1)[C@@H]2C5` [listing 2 of 2 here], the inhibition (INH) is 15% in [3], 10% in test [5] and 30% in test [6]. Moreover, the fold change (FC) in [7] was determined as 4.

As to `COC(=O)CCC(=O)N[C@@]12CCC(=O)[C@@H]3Oc4c(O)ccc5c4[C@@]31CCN(CC1CC1)[C@@H]2C5` [listing 2 of 2 here], the fold change (FC) is 10 in test [4] and 4 in test [7]. In test [8], the Imax is 90%.

Consider `COC(=O)/C=C/C(=O)NC[C@H]1C[C@@]23CC[C@]1(OC)[C@@H]1Oc4c(O)ccc5c4[C@@]12CCN(CC1CC1)[C@@H]3C5` [listing 2 of 2 here], for which the pKi was 9.05 in test [1] and 8.55 in [2].

The values above are taken from ChEMBL document CHEMBL2176977 (J Med Chem, 2012).
